## Measured affinities in a library of Ab-95 light chain variants

The measurements come from Engelhart et al. 2022 (doi:10.1038/s41597-022-01779-4) through the FLAb antibody collection.

All variants were tested on one target, the spike HR2 peptide PDVDLGDISGINAS (SARS-CoV-2).

Parent: Ab-95, a human scFv built as VH, three GGGGS repeats, VL. Only the CDRs of the light chain vary.
VH: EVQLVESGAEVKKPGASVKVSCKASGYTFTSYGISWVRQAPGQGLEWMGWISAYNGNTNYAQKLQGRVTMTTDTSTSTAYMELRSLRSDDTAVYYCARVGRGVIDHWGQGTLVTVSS
VL: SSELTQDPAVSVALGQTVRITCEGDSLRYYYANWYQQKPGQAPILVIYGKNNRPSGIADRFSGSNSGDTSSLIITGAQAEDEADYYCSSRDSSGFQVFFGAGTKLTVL

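The parent was found by panning a naive human phage display library on the peptide. The library (AAYL52) carries one to three amino acid substitutions per variant, with no insertions or deletions. The assay is AlphaSeq: two haploid yeast populations carry antibody and antigen on their surface. Mating (16 h, 30 °C) was followed by selection of diploids and sequencing of their barcodes. Scores were corrected for input abundance and mapped to Kd with protein pairs of known affinity run in the same pool. There are three technical replicates.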

Changes read parent residue, position, new residue, counted from the first residue of the VL shown. Every variant below is changed at S93 of the VL (sequential numbering). Each Kd is an estimate from the mating assay, the geometric mean of the replicates in which the pair was seen; lower is stronger. Where no diploid with the target was found in any replicate, the entry reads "nd": below detection, most likely a poor binder, though not proof of it.

For G24R S93W Q96H, the assay gave 5.8 µM (3 of 3 replicates). With L27H Y29E S93R the result was 600 nM (3 of 3 replicates). With A32R S88P S93T the result was 7.7 µM (2 of 3 replicates). The variant S26R Y29W S93Y gave 6.1 µM (1 of 3 replicates). For R28F Y30N S93W, the assay gave 22 nM (3 of 3 replicates). With E23K S93K the result was 79 nM (3 of 3 replicates). The variant R28K N52T S93R gave 600 nM (3 of 3 replicates). For R28L R53Q S93G, the assay gave nd (0 of 3 replicates).

With Y31H S93R F95N the result was 700 nM (3 of 3 replicates). The variant L27T Y31K S93E gave 3.0 µM (1 of 3 replicates). The variant S88K D91Y S93R showed 18 µM (1 of 3 replicates). The variant Y29A N52P S93W showed 8.2 µM (3 of 3 replicates). With S93I V97S the result was nd (0 of 3 replicates). With E23T D91K S93F the result was 350 nM (3 of 3 replicates). For S55I R90L S93G, the assay gave nd (0 of 3 replicates). The variant D25S Y31C S93H gave 500 nM (3 of 3 replicates).

The variant R90A D91E S93M showed 380 nM (3 of 3 replicates). The variant N52P R53D S93G gave 7.4 µM (1 of 3 replicates). The variant A32P S93A F98G gave 380 nM (3 of 3 replicates). For E23H S93M G94S, the assay gave 310 nM (3 of 3 replicates). The variant G24L S93C F98M gave nd (0 of 3 replicates). The variant Y30M D91L S93G gave 58 µM (2 of 3 replicates). The variant S92W S93D gave 610 nM (3 of 3 replicates). For E23L S93D F98Y, the assay gave 1.4 µM (3 of 3 replicates).

The variant S26P S93F F95A showed 1.4 µM (3 of 3 replicates). For Y31P S93M, the assay gave 66 nM (3 of 3 replicates). The variant S93K G94Y gave 86 nM (3 of 3 replicates). For R28N G49H S93I, the assay gave 5.1 µM (1 of 3 replicates). With P54R S93L F95E the result was 6.1 µM (1 of 3 replicates). With P54K S93V the result was 22 µM (2 of 3 replicates). The variant D25Y S93A showed 190 nM (3 of 3 replicates). The variant N33D R53T S93A gave 170 µM (2 of 3 replicates).

The variant Y29Q K50C S93N gave 3.3 µM (3 of 3 replicates). The variant Y29P S93V Q96V showed 92 µM (1 of 3 replicates). The variant Y31M S92C S93A gave 160 nM (3 of 3 replicates). The variant E23G D91H S93W gave 57 nM (3 of 3 replicates). With A32M R90L S93Q the result was 95 nM (3 of 3 replicates). With S93F F95Y V97G the result was nd (0 of 3 replicates). The variant P54R S93D G94I gave nd (0 of 3 replicates). The variant S26I R28C S93Q showed 41 µM (2 of 3 replicates).

The variant R28A S93L F95G gave 740 nM (2 of 3 replicates). The variant R28E Y30H S93W showed 120 nM (3 of 3 replicates). With Y31I S93K F98A the result was nd (0 of 3 replicates). With L27W Y30Q S93T the result was 2.0 µM (3 of 3 replicates). For S88M S93R Q96W, the assay gave 5.1 µM (2 of 3 replicates). For N51D N52Y S93V, the assay gave 3.6 µM (3 of 3 replicates). The variant S55M S93I showed 34 µM (3 of 3 replicates). The variant G24H S55P S93C showed 1.2 µM (1 of 3 replicates).

The variant S92P S93N F95P showed 220 nM (3 of 3 replicates). The variant S26C G49V S93D showed nd (0 of 3 replicates).

For reference, 6 entries of the list once more:

{"changes": "N51D N52Y S93V", "apparent Kd": "3.6 µM", "seen in": "3/3"}
{"changes": "S88K D91Y S93R", "apparent Kd": "18 µM", "seen in": "1/3"}
{"changes": "S26C G49V S93D", "apparent Kd": "nd", "seen in": "0/3"}
{"changes": "E23T D91K S93F", "apparent Kd": "350 nM", "seen in": "3/3"}
{"changes": "N52P R53D S93G", "apparent Kd": "7.4 µM", "seen in": "1/3"}
{"changes": "R90A D91E S93M", "apparent Kd": "380 nM", "seen in": "3/3"}

For reference, the parent read 200 nM as the reference entry and 180 nM as a member of this library. As a blank, each scFv also met three strains without target: over library AAYL52, 28% of these pairings were detected, typically at 8.2 µM and seldom below 800 nM.